Reference: article PMC8689140 (Frontiers in Pharmacology, 2021)

Chains of the proteins cited; added tags and fusions are not shown.
UniProt Q01827, whole entry: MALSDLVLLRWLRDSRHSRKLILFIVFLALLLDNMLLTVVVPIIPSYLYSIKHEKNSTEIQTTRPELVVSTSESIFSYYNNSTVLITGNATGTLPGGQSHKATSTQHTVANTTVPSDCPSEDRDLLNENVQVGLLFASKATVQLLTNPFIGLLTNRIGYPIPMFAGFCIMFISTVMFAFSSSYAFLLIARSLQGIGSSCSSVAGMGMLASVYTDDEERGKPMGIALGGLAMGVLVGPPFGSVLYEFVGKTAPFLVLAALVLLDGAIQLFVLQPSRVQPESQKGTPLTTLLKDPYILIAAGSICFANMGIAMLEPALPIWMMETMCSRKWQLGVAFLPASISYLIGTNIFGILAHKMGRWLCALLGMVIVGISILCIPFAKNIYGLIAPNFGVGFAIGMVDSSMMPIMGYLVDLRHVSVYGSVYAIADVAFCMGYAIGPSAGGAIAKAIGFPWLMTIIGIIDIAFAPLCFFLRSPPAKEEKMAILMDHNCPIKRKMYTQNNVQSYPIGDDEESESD

Columns and labels:
rat brain VMAT2 = molecular target: T1, rat brain VMAT2 (Rattus norvegicus, UniProt Q01827); assay: VMAT2 binding assay (inhibition of [3H]HTBZ binding)
T1 construct: the whole rat brain (excluding the cerebellum) or striatal were homogenized; tissue Eurofins Panlabs (assay performed by); host or cells: rat brain (without cerebellum) or striatum, synaptic vesicle suspension

rat VMAT2 = molecular target: T2, rat VMAT2 (Rattus norvegicus, UniProt Q01827); assay: [3H]DA uptake assay in rat striatal synaptosomes; format: biochemical
T2 construct: in vitro [^3H]DA uptake assay in rat striatal synaptosomes; from tissue; host or cells: rat striatal synaptosomes / vesicular suspension
Description: [^3H]DA (dihydroxyphenylethyethylamine, 3,4-[ring-2,5,6-^3H]; specific activity, 28.0 Ci/mmol) was purchased from Perkin Elmer. […] After drying, the filter plate was sealed with unifilter-96 back sealing tape and added 50 μl of microscint-20 (Perkin Elmer), then sealed the top of the filter plate with TopSeal-A. The radioactivity was measured by a TopCount scintillation counter. GraphPad Prism 5.0 was used to analyze data.

COc1cc2c(cc1OC)C1CC(=O)C(CC(C)C)CN1CC2 (stereo not drawn) [TBZ, tetrabenazine, reference compound]
IC50 (rat brain VMAT2): 23 nM | Ki (rat brain VMAT2): 13.5 nM | IC50 (rat VMAT2): 7.17 nM
